Our source for the IC50 values is ChEMBL document CHEMBL1156448, “Identification of an efficacy switch region in the ghrelin receptor responsible for interchange between agonism and inverse agonism” (J Biol Chem, 2007).

Sequences of proteins named here, by UniProt entry; tags and fusion partners are left off.
UniProt Q92847, whole entry: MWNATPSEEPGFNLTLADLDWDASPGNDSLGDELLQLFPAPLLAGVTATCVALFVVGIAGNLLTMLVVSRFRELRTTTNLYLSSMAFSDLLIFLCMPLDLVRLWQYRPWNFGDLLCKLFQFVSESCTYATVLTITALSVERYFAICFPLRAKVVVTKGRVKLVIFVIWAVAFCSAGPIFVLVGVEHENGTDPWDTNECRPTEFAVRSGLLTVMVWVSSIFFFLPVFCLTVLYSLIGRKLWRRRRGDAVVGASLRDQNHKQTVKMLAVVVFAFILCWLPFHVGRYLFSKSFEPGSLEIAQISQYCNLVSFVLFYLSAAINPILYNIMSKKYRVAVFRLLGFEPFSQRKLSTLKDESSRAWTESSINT

The target of test [1] is T1, Growth hormone secretagogue receptor type 1 (Homo sapiens, UniProt Q92847). Kind of test: Inverse agonist activity at human ghrelin receptor expressed in african green monkey COS7 cells assessed as constitutively stimulated inositol phosphate accumulation. Type of test: functional, cell-based, COS-7.
For test [2], the target named is T1, Growth hormone secretagogue receptor type 1. As to the kind of experiment: Displacement of [35S]MK677 from human ghrelin receptor expressed in african green monkey COS7 cells. Type of test: cell-based, COS-7. (Displacement assays read how much labelled ligand stays bound in the presence of the test substance.)

SMILES strings stand for the structures.

As to `CC(C)C[C@H](NC(=O)[C@H](CC(C)C)NC(=O)[C@@H](Cc1c[nH]c2ccccc12)NC(=O)[C@H](Cc1ccccc1)NC(=O)[C@@H](Cc1c[nH]c2ccccc12)NC(=O)[C@H](CCC(N)=O)NC(=O)[C@@H](Cc1ccccc1)NC(=O)[C@@H]1CCCN1C(=O)[C@H](CCCCN)NC(=O)[C@@H]1CCCN1C(=O)[C@H](N)CCCN=C(N)N)C(N)=O`, the values for the concentration for half-maximal inhibition (IC50) in test [1] and in test [2] were 18 nM and 3.2 nM, respectively.

The term IC50 denotes the concentration that gives 50% inhibition.
